Biological target: 5-hydroxytryptamine receptor 1A (Rattus norvegicus, UniProt P19327)

Sequences of proteins named here, by UniProt entry; tags and fusion partners are left off.
UniProt P19327, whole entry: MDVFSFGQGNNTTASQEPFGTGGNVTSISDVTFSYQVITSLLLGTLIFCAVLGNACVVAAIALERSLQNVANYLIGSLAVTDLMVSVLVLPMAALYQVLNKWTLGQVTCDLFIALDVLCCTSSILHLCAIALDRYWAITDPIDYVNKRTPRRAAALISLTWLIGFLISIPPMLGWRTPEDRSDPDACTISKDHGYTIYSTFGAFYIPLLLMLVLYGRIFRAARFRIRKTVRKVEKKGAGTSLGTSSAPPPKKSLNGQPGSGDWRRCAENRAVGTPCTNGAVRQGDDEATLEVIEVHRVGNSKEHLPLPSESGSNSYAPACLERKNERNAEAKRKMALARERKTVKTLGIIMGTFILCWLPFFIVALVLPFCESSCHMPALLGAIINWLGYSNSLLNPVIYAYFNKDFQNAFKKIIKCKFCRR

COc1ccc2[nH]cc(C3=CCNCC3)c2c1 [RU-24969]
Ki: 11 nM

From ChEMBL document CHEMBL1126551, “Three-dimensional quantitative structure-activity relationships of 5-HT receptor binding data for tetrahydropyridinylindole derivatives: a comparison of the Hansch and CoMFA methods” (J Med Chem, 1993)
